Several values for one entry are separate records, joined by “and”; a condition that tells them apart may be missing. Equal values may be shown once.
Target: CD4 antigen (T-cell surface glycoprotein CD4 [Homo sapiens]) (human) (UniProt P01730)
Test: cell-based or functional assay

ablation of CD4+ malignant cells in ATLL patient PBMCs, 4-hour co-culture: 80%
lysis of CD4+ cells in autologous PBMCs, E:T ratio 3:1, 4-hour co-culture: 94%
reduction of malignant T cells in primary CTCL patient samples, 4-hour co-culture: 80% and 60%
Substance: CART4 chimeric antigen receptor (anti-CD4 CAR; scFv of Hu5A8 fused to CD8 hinge/transmembrane domain, CD28 endodomain, 4-1BB endodomain and CD3ζ chain)

From US20240181056A1, “CHIMERIC ANTIGEN RECEPTOR (CAR)-T CELLS” (Imperial College Innovations Limited, priority 2021, published 2024)
